Measured values taken from PMC10710878 (Journal of receptor and signal transduction research, 2022).

Test system: rat hippocampal CA3 epileptiform activity
Format: cell-based

SMILES | RE
N=C(N)NC(=O)Cc1c(Cl)cccc1Cl [guanfacine, guanfacine hydrochloride] | 0.45
Nc1cc(Cl)c(N=C2NCCN2)c(Cl)c1 [p-aminoclonidine] | 0.32
Cc1cc(C(C)(C)C)cc(C)c1CC1=NCCN1 [xylometazoline] | 0.20

Where a name gives a salt, the structure may show the parent alone.
